For one data set, the system named is rat gastric mucosa. Particulars: male, Wistar, in vivo, po, 4 days. Here is the method:
The animals entered in the trial, randomized and divided into groups of 6 rats each, were fasted for 16 h prior to treatment, with access to water ad libitum. They were re-fed 1 h after drug administration. The compound 2-methoxyphenyl-1-methyl-5p-methylbenzoyl-pyrrol-2-acetamido acetate and the other reference NSAIDs, suspended in 1% carboxymethylcellulose (CMC) solution, were orally administered by gastric gavage in a volume of 6ml/kg for four consecutive days. Controls received the vehicle in the same way as the treated animals. 4 h after the last administration the animals were killed by ether overdose; the stomachs were removed, rinsed with 10 ml of saline and immersed in 1% formalin. They were later opened along the greater curvature and the mucosa examined for lesions.
The seriousness of the lesion was quantified according to a scale graduated from 1 to 3 according to the size of the lesions: 1= ulcer < 1mm; 2= ulcer 1-2mm; 3= ulcer > 2mm. […] The gastric lesions were evaluated by two independent investigators under blind conditions according to Main & Whittle method (BJ Pharmac 1975:53; p. 217-224).
Since the average daily dose in man (for the anti-inflammatory activity) is 600 mg, the comparative efficacious dose in the rat is in the ratio of 12:1. […] To evaluate the "ratio to rat dosage" the ID50 has been determined using the carrageenin-induced oedema as inflammatory test. […]

In data set [1] the test system is carrageenin-induced paw oedema. The experiment in a line: Determination of ID50, carrageenin-induced paw oedema. Type of data set: in vivo, rat. Particulars: five times the oral ID50 for oedema inhibition, 2 h after carrageenin. Here is the method: ID50, relative to the products under examination (considered in table 1), has been evaluated using the anti-inflammatory response to carrageenin-induced paw oedema (according to Wong et al, J Pharmacol Exp, 1973:1855; pages 127-138). The products, suspended in 1% CMC, were administered orally in a total volume of 5 ml/rat. 1 h later, 0.1 ml of 1% carrageenin sterile solution was injected into the hind subplantar aponeurosis. Volume of the paw was measured immediately prior to injection of the phlogogen and 2 h thereafter, by means of a plethysmograph. The percentage of inhibition of oedema was calculated as follows: 1 - ΔV treated/ΔV control x 100 [formula] where ΔV = final V - initial V.
Three doses have been used for each NSAID and the ID50, which indicates the quantity in mg/kg inhibiting oedema by 50%, has been determined.

On to `CS(=O)(=O)Nc1ccc([N+](=O)[O-])cc1Oc1ccccc1` [Nimesulide, nimesulide], for which the Gastrolesive index in the data set with rat gastric mucosa is 21.3. For the same molecule, the “Ratio to rat dosage (mg/kg) (ID50 mg/kg x5)” value in data set [1] was determined as 28.5 mg/kg.

(Values after patent EP1310250A1, “Use of the compound 2-methoxyphenyl-1-methyl-5P-methylbenzoyl-pyrrol-2-acetamido acetate for the production of an antiinflammatory drug with prevention of gastric hypersecretion and renal impairment” (MEDOSAN Ricerca S.r.l., priority 1997, dated 1999).)
